{"source": "patent US20030077573A1", "about": "“Methods of identifying compounds useful in the inhibition of neurodegenerative disease” (priority 1999, published 2003)", "key": {"[1]": {"test_system": "N9 murine microglial cell line", "experiment": "LPS-induced TNF-α release from N9 microglia", "format": "cell-based", "details": "LPS 2.5 ng/mL, 18 h; dipyridamole 10 μM, SNP 10 μM, YC-1 10 μM"}, "[2]": {"test_system": "murine microglial cell line (N9)", "experiment": "LTB4 release from N9 microglial cells", "details": "Aβ1-40 500 nM + drug (dipyridamole 10 μM), 18 hours"}}, "note": "This is a selection: effects in other tests are not listed, and their absence says nothing."}
{"substance": "sodium nitroprusside", "values": [{"measurement": "effect on LPS-induced microglial activation (TNF-α release)", "setting": "[1]", "value": "markedly reduce microglial activation induced by LPS"}, {"measurement": "effect on Aβ-induced microglial LTB4 release", "setting": "[2]", "value": "completely block Aβ-induced microglial LTB4 release"}]}
